{"sequences": {"note": "The chains behind the UniProt entries cited, without tags or fusion partners. Where a name states a change or a piece, a line headed by the entry shows the natural chain unless it says otherwise.", "UniProt Q9H2X6": "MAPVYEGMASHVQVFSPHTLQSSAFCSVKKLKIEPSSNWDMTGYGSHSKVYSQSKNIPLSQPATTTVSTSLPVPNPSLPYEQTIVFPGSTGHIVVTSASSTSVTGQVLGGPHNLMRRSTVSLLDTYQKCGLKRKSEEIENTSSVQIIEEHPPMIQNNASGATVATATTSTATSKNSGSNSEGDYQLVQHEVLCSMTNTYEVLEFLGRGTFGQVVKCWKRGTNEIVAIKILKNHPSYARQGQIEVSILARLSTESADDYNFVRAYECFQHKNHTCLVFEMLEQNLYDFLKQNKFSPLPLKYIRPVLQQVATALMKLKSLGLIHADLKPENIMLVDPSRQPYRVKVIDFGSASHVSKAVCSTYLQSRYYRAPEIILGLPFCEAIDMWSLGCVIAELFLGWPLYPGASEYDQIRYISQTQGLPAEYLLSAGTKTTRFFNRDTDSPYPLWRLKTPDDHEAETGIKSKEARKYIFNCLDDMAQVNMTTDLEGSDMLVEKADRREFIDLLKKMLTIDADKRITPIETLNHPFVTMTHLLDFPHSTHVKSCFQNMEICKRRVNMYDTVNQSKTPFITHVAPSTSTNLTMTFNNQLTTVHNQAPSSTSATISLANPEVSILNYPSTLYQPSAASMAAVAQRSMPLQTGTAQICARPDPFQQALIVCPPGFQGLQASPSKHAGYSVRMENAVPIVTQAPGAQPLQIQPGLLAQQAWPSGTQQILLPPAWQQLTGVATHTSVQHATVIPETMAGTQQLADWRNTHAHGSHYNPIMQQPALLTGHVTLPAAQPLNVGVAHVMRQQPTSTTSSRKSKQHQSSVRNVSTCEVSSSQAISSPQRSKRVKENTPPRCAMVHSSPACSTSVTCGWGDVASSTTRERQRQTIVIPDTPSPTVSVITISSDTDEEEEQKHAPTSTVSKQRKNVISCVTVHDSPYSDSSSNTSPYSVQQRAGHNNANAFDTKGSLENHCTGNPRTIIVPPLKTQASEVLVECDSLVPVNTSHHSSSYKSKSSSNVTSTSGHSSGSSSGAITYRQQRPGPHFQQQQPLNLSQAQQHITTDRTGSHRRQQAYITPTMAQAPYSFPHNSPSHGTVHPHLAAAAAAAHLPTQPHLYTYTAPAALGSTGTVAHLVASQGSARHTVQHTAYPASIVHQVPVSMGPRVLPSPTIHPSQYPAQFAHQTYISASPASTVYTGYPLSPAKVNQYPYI"}, "source": "ChEMBL document CHEMBL3808365", "about": "“Potent and Selective CK2 Kinase Inhibitors with Effects on Wnt Pathway Signaling in Vivo” (ACS Med Chem Lett, 2016)", "target": "Homeodomain-interacting protein kinase 2 (Homo sapiens, UniProt Q9H2X6)", "assay": "Inhibition of Hipk2 (unknown origin) by quantitative PCR"}
{"molecule": "CC(=O)Nc1cc(Nc2cc(NC3CC3)n3ncc(C#N)c3n2)ccc1N(C)CCN", "values": [{"measurement": "IC50", "result": 40, "unit": "nM"}]}
